Results published in US10570150B2, “6,7-trans cephalosporin-based probes for detecting bacteria expressing a metallo-beta-lactamase” (priority 2014, dated 2020).

How the values were obtained:
[1] = test system: K. pneumoniae with VIM-27; settings: VIM-27-expressing bacteria, 10^4 to 10^6 c.f.u. (>=10^5 c.f.u. for (s)-CC-1, (s)-CC-5); probe 10 μM, 2 h
[2] = test system: E. coli with NDM-1; settings: NDM-1-expressing bacteria, 10^4 to 10^6 c.f.u. (>=10^5 c.f.u. for (s)-CC-1, (s)-CC-5); probe 10 μM, 2 h
[3] = test system: E. coli with IMP-1; settings: IMP-1-expressing bacteria, 10^4 to 10^6 c.f.u. (>=10^5 c.f.u. for (s)-CC-1, (s)-CC-5); probe 10 μM, 2 h
[4] = test system: K. pneumoniae with KPC-3; test: Fluorescence response of probes to live KPC-3-expressing bacteria; settings: 10^4 to 10^6 c.f.u. (>=10^5 c.f.u. for (s)-CC-1, (s)-CC-5), probe 10 μM, 2 h
[5] = test system: Eleven bacteria strains that produced carbapenemases or other clinically prevalent β-lactamases; test: Fluorescence response to the panel of eleven β-lactamase-producing live bacteria strains; settings: 10^4 to 10^6 c.f.u., probe 10 μM, 2 h

Structure (SMILES) | fluorescence response to live bacteria [1] | fluorescence response to live bacteria [2] | fluorescence response to live bacteria [3] | fluorescence response to live bacteria [4] | fluorescence response to all bacteria strains [5]
CO[C@H]1C(=O)N2C(C(=O)O)=C(COc3ccc4ccc(=O)oc4c3)CS[C@H]12 [(s)-CC-1, (6R,7S)-7-methoxy-8-oxo-3-(((2-oxo-2H-chromen-7-yl)oxy)methyl)-5-thia-1-azabicyclo[4.2.0.]oct-2-ene-2-carboxylic Acid] | high fluorescence enhancement | high fluorescence enhancement | high fluorescence enhancement | high fluorescence enhancement | –
CC(C)O[C@H]1C(=O)N2C(C(=O)O)=C(COc3ccc4ccc(=O)oc4c3)CS[C@H]12 [(s)-CC-3, (6R,7S)-7-isopropoxy-8-oxo-3-(((2-oxo-2H-chromen-7-yl)oxy)methyl)-5-thia-1-azabicyclo[4.2.0]oct-2-ene-2-carboxylic Acid] | intense fluorescence responses | intense fluorescence responses | intense fluorescence responses | – | –
CC(C)(C)O[C@H]1C(=O)N2C(C(=O)O)=C(COc3ccc4ccc(=O)oc4c3)CS[C@H]12 [(s)-CC-4, (6R,7S)-7-(tert-butoxy)-8-oxo-3-(((2-oxo-2H-chromen-7-yl)oxy)methyl)-5-thia-1-azabicyclo[4.2.0]oct-2-ene-2-carboxylic Acid] | – | – | specific preference for IMP-producing strains | – | –
O=C(O)C1=C(COc2ccc3ccc(=O)oc3c2)CS[C@@H]2[C@@H](OCc3ccccc3)C(=O)N12 [(s)-CC-5, (6R,7S)-7-(benzyloxy)-8-oxo-3-(((2-oxo-2H-chromen-7-yl)oxy)methyl)-5-thia-1-azabicyclo[4.2.0]oct-2-ene-2-carboxylic Acid] | high fluorescence enhancement | high fluorescence enhancement | high fluorescence enhancement | high fluorescence enhancement | –
Cc1ccc(S(=O)(=O)O[C@H]2C(=O)N3C(C(=O)O)=C(COc4ccc5ccc(=O)oc5c4)CS[C@H]23)cc1 [(s)-CC-6, (6R,7S)-8-oxo-3-(((2-oxo-2H-chromen-7-yl)oxy)methyl)-7-(tosyloxy)-5-thia-1-azabicyclo[4.2.0]oct-2-ene-2-carboxylic Acid] | intense fluorescence responses | intense fluorescence responses | intense fluorescence responses | – | –
O=C(Cc1ccccc1)N[C@@H]1C(=O)N2C(C(=O)O)=C(COc3ccc4ccc(=O)oc4c3)CS[C@H]12 [CDC-1, reference compound] | – | – | – | – | consistently positive
